Assay results taken from ChEMBL document CHEMBL5532688, “Carltonine-derived compounds for targeted butyrylcholinesterase inhibition” (RSC Med Chem, 2024).

Assay: in vitro
Conditions: PAMPA, pH 7.4

CCN(C)C(=O)Oc1cccc([C@H](C)N(C)C)c1 [RIVASTIGMINE]
Papp at 100 µM: 20 ×10⁻⁶ cm/s
